The values below come from PMC6445195, “Synthesis and biological evaluation of aminomethyl and alkoxymethyl derivatives as carbonic anhydrase, acetylcholinesterase and butyrylcholinesterase inhibitors” (Journal of Enzyme Inhibition and Medicinal Chemistry, 2017).

Amino acid sequences for entries named in this document (tags omitted). Residues count along the entry.
UniProt P00915, whole entry: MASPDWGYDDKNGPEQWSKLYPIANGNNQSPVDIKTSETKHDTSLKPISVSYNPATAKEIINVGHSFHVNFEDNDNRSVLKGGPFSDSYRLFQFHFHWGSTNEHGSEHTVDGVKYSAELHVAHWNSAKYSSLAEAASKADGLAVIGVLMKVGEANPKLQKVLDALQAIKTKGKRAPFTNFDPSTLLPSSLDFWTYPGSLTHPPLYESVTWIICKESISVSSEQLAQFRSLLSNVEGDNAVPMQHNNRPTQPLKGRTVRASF
UniProt P22303, 32-614 limits assumed: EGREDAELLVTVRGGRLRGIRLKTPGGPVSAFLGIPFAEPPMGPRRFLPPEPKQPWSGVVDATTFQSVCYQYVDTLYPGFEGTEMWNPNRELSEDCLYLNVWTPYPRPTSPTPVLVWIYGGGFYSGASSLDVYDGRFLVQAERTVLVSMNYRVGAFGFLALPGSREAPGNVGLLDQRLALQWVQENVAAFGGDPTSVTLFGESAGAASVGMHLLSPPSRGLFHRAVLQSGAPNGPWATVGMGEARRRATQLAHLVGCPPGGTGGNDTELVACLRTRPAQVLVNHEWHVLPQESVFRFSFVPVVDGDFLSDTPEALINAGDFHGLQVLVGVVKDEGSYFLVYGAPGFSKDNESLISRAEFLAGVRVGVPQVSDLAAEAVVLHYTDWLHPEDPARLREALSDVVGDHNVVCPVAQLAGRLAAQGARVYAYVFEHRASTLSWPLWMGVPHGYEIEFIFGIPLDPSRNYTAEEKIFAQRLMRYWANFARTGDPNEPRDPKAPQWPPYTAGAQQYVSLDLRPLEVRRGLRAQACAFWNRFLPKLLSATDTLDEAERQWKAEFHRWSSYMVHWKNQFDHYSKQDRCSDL
UniProt P06276, 29-602 limits assumed: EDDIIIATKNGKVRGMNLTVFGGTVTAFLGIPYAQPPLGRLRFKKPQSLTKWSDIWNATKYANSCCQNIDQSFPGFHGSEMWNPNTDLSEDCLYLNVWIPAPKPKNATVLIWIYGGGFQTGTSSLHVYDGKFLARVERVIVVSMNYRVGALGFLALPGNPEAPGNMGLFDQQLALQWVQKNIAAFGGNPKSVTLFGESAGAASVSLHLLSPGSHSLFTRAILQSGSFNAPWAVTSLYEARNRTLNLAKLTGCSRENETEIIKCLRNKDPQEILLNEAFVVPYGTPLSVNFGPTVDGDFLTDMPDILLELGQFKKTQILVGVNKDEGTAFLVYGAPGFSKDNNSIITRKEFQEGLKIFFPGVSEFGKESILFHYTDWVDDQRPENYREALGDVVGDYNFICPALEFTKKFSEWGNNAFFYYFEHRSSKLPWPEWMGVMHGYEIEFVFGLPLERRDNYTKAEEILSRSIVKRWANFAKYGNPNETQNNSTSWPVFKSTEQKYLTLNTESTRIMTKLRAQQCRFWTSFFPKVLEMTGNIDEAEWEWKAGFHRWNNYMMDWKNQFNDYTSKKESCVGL

The structures appear in SMILES notation.

Assay [1] addresses hCA I (Homo sapiens, UniProt P00915). To be noted: for IC50: read-out: IC50 hCA I, purified from human erythrocytes, PNA substrate, 22 °C; for Ki: read-out: Ki hCA I, three concentrations used.
Assay [2] has as its target hCA II (Homo sapiens, UniProt P00918). To be noted: for IC50: read-out: IC50 hCA II, purified from human erythrocytes, PNA substrate, 22 °C; for Ki: read-out: Ki hCA II, three concentrations used.
Assay [3] has as its target AChE (Homo sapiens, UniProt P22303). Particulars: for AChE/BChE (proportion of AChE to BChE, selectivity): ratio of Ki AChE to Ki BChE; for IC50: read-out: IC50 AChE, Ellman, Tris/HCl pH 8.0, 25 °C; for Ki: read-out: Ki AChE. A general note: In Ellman's method for cholinesterases, released thiocholine reacts with DTNB.
Assay [4] concerns the target BChE (Homo sapiens, UniProt P06276). To be noted: for IC50: read-out: IC50 BChE, Ellman, Tris/HCl pH 8.0, 25 °C; for Ki: read-out: Ki BChE.

In general, IC50 refers to the point on the concentration scale where inhibition reaches its midpoint. Usually Ki stands for a dissociation constant, usually derived from enzyme kinetics or from competition with a known ligand. On to `S=c1sc2ccccc2n1CN1CCOC1`, for which the IC50 in assay [1] was 79 nM; in assay [2], 114 nM; in assay [3], 39 nM; in assay [4], 89 nM. Further, the Ki is 77 nM in assay [1], 107 nM in assay [2], 33 nM in assay [3] and 51 nM in assay [4]. Moreover, in assay [3], the AChE/BChE (proportion of AChE to BChE, selectivity) amounted to 0.647.

Consider `S=c1oc2ccccc2n1CN1CCCCC1`, for which the IC50 in assay [1] amounted to 79 nM; in assay [2], 116 nM; in assay [3], 65 nM; in assay [4], 79 nM. Further, the Ki is 82 nM in assay [1], 132 nM in assay [2], 40 nM in assay [3] and 57 nM in assay [4]. Further, the AChE/BChE (proportion of AChE to BChE, selectivity) in assay [3] amounted to 0.701.

For `COCn1c(=S)oc2ccccc21`, the 50% inhibitory concentration (IC50) in assay [1] amounted to 112 nM; in assay [2] it was 172 nM; in assay [3] it was 89 nM; in assay [4], 133 nM. Further, the inhibition constant Ki in assay [1] is 118 nM; in assay [2], 137 nM; in assay [3] it was 45 nM; in assay [4], 77 nM. Also, in assay [3], the AChE/BChE (proportion of AChE to BChE, selectivity) amounted to 0.584.

With `CCOCn1c(=S)oc2ccccc21`, the IC50 came to 119 nM in assay [1], 141 nM in assay [2], 63 nM in assay [3] and 93 nM in assay [4]. Moreover, the Ki is 95 nM in assay [1], 146 nM in assay [2], 75 nM in assay [3] and 88 nM in assay [4]. The AChE/BChE (proportion of AChE to BChE, selectivity) in assay [3] was 0.852.

In the case of `S=c1oc2ccccc2n1CN1CCCOC1`, the IC50 in assay [1] was found to be 98 nM; in assay [2], 137 nM; in assay [3], 50 nM; in assay [4] it was 94 nM. In addition, the Ki turned out to be 99 nM in assay [1], 135 nM in assay [2], 61 nM in assay [3] and 50 nM in assay [4]. Also, in assay [3], the AChE/BChE (proportion of AChE to BChE, selectivity) came to 1.22.

Regarding `S=c1sc2ccccc2n1CN1CCOCC1` [Compound 1, N-oxazinomethylbenzothiazoline-2-thione], the IC50 in assay [1] was found to be 83 nM; in assay [2], 89 nM; in assay [3] it was 54 nM; in assay [4], 75 nM. Further, the inhibition constant Ki in assay [1] was found to be 106 nM; in assay [2] it was 96 nM; in assay [3], 37 nM; in assay [4], 45 nM. Besides, in assay [3], the AChE/BChE (proportion of AChE to BChE, selectivity) was determined as 0.822.
